From patent US10118930B2, “Piperidinylpyrazolopyrimidinones and their use” (BAYER PHARMA AKTIENGESELLSCHAFT, priority 2015, dated 2018)
Structures can show the parent of a compound that is named as a salt.

Test system: clot lysis (fibrinolysis) in diluted human citrated plasma, tPA-induced
Assay: Plasma-based clot lysis assay (5%)
Format: biochemical
Conditions: human citrated platelet-poor plasma 5%, fibrinogen 3 μM, CaCl2 10 mM, tPA 0.2 nM, 37° C., OD at 405 nm
Experimental: B-2. Plasma-based Clot Lysis Assay (5%)
The clot-lysis test system configures the kinetics of clot formation and degradation in vitro and allows quantifying modulation of the process by selected test compounds.
The test compounds were dissolved in 1% acetic acid and further complemented with an equal volume of DMSO. The resulting stock solutions were serially diluted in 0.5% acetic acid/50% DMSO. 1 μL aliquots of these solutions were placed into 384 well microplates (Greiner, black, transparent bottom), followed by 30 μL of diluted human citrated plasma (platelet-poor, final concentration: 5%; supplemented with fibrinogen, final concentration: 3 μM; dilution buffer: 20 mM HEPES, 150 mM NaCl, 0.01% Brij (pH 7)). The reactions were started by addition of 20 μL of CaCl2 (final concentration: 10 mM), and tPA (tissue plasminogen activator, final concentration: 0.2 nM) in dilution buffer, followed by an additional volume of 20 μL dilution buffer for improved mixing. The reactions were incubated at 37° C. […] IC50 values were determined by comparing the resulting time courses with the time course of a blank control reaction.

Compound | IC50
COc1ccccc1-c1c(C)nn2c(C3CCNCC3)cc(=O)[nH]c12 [Example 6, 3-(2-Methoxyphenyl)-2-methyl-7-(piperidin-4-yl)pyrazolo[1,5-a]pyrimidin-5(4H)-one hydrochloride] | 170 nM
Cc1nn2c(C3CCNCC3)cc(=O)[nH]c2c1C(=O)N1CCOCC1(C)C [Example 427, 3-[(3,3-dimethyl-morpholin-4-yl)carbonyl]-2-methyl-7-(piperidin-4-yl) pyrazolo[1,5-a] pyrimidin-5(4H)-one hydrochloride] | 23 nM
Cc1sc(-c2cnn3c(C4CCNCC4)cc(=O)[nH]c23)nc1C(F)(F)F [Example 334, 3-[5-methyl-4-(trifluoromethyl)-1,3-thiazol-2-yl]-7-(piperidin-4-yl)pyrazolo[1,5-a]pyrimidin-5(4H)-one hydrochloride] | 30 nM
COc1ccccc1-c1cnn2c(C3CCNCC3)cc(=O)[nH]c12 [Example 67, 3-(2-Methoxyphenyl)-7-(piperidin-4-yl)pyrazolo[1,5-a]pyrimidin-5(4H)-one hydrochloride] | 97 nM
O=c1cc(C2CCNCC2)n2ncc(-c3ccns3)c2[nH]1 [Example 373, 7-(piperidin-4-yl)-3-(1,2-thiazol-5-yl)pyrazolo[1,5-a]pyrimidin-5(4H)-one hydrochloride] | 11 nM
Cc1nc(-c2cnn3c(C4CCNCC4)cc(=O)[nH]c23)sc1CC(C)C [Example 443, 3-[4-methyl-5-(2-methylpropyl)-1,3-thiazol-2-yl]-7-(piperidin-4-yl)pyrazolo[1,5-a]pyrimidin-5(4H)-one hydrochloride] | 23 nM
CC(C)(C)c1ccc(-c2noc(-c3cnn4c(C5CCNCC5)cc(=O)[nH]c34)n2)cc1 [Example 196, 3-[3-(4-tert-butylphenyl)-1,2,4-oxadiazol-5-yl]-7-(piperidin-4-yl)pyrazolo[1,5-a]pyrimidin-5(4H)-one hydrochloride] | 75 nM
O=c1cc(C2CCNCC2)n2ncc(-c3cccc(F)c3)c2[nH]1 [Example 52, 3-(3-Fluorophenyl)-7-(piperidin-4-yl)pyrazolo[1,5-a]pyrimidin-5(4H)-one hydrochloride] | 24 nM
O=c1cc(C2CCNCC2)n2ncc(-c3cccc(OCc4ccccc4)c3)c2[nH]1 [Example 12, 3-[3-(Benzyloxy)phenyl]-7-(piperidin-4-yl)pyrazolo[1,5-a]pyrimidin-5(4H)-one hydrochloride] | 30 nM
Cc1nn2c(C3CCNCC3)cc(=O)[nH]c2c1C(=O)OCC(F)(F)F [Example 367, 2,2,2-trifluoroethyl 2-methyl-5-oxo-7-(piperidin-4-yl)-4,5-dihydropyrazolo[1,5-a]pyrimidine-3-carboxylate hydrochloride] | 25 nM
Cc1nn2c(C3CCNCC3)cc(=O)[nH]c2c1-c1nc(C(C)C)no1 [Example 301, 2-methyl-7-(piperidin-4-yl)-3-[3-(propan-2-yl)-1,2,4-oxadiazol-5-yl]pyrazolo[1,5-a]pyrimidin-5(4H)-one hydrochloride] | 30 nM
O=c1cc(C2CCNCC2)n2ncc(-c3ccccc3)c2[nH]1 [Example 1, 3-Phenyl-7-(piperidin-4-yl)pyrazolo[1,5-a]pyrimidin-5(4H)-one hydrochloride] | 38 nM
CCC(C)(C)C(=O)c1cnn2c(C3CCNCC3)cc(=O)[nH]c12 [Example 377, 3-(2,2-dimethylbutanoyl)-7-(piperidin-4-yl)pyrazolo[1,5-a]pyrimidin-5(4H)-one hydrochloride] | 25 nM
CCCOC(=O)c1c(SC)nn2c(C3CCNCC3)cc(=O)[nH]c12 [Example 470, Propyl 2-(methylsulfanyl)-5-oxo-7-(piperidin-4-yl)-4,5-dihydropyrazolo[1,5-a]pyrimidine-3-carboxylate hydrochloride] | 25 nM
CCOC(=O)c1noc(-c2cnn3c(C4CCNCC4)cc(=O)[nH]c23)n1 [Example 211, Ethyl 5-[5-oxo-7-(piperidin-4-yl)-4,5-dihydropyrazolo[1,5-a]pyrimidin-3-yl]-1,2,4-oxadiazole-3-carboxylate hydrochloride] | 34 nM
CC(CN1CCOCC1)c1nnc(-c2cnn3c(C4CCNCC4)cc(=O)[nH]c23)o1 (centres unmarked) [Example 281, 3-{5-[1-(morpholin-4-yl)propan-2-yl]-1,3,4-oxadiazol-2-yl}-7-(piperidin-4-yl)pyrazolo[1,5-a]pyrimidin-5(4H)-one hydrochloride] | 90 nM
O=C1CCCN1Cc1nnc(-c2cnn3c(C4CCNCC4)cc(=O)[nH]c23)o1 [Example 292, 3-{5-[(2-oxopyrrolidin-1-yl)methyl]-1,3,4-oxadiazol-2-yl}-7-(piperidin-4-yl)pyrazolo[1,5-a]pyrimidin-5(4H)-one hydrochloride] | 34 nM
COc1ccccc1-c1noc(-c2c(C)nn3c(C4CCNCC4)cc(=O)[nH]c23)n1 [Example 437, 3-[3-(2-methoxyphenyl)-1,2,4-oxadiazol-5-yl]-2-methyl-7-(piperidin-4-yl)pyrazolo[1,5-a]pyrimidin-5(4H)-one hydrochloride] | 10 nM
CC1(NC(=O)c2cnn3c(C4CCNCC4)cc(=O)[nH]c23)CCC1 [Example 91, N-(1-methylcyclobutyl)-5-oxo-7-(piperidin-4-yl)-4,5-dihydropyrazolo[1,5-a]pyrimidine-3-carboxamide hydrochloride] | 19 nM
CC(CF)(CF)c1csc(-c2cnn3c(C4CCNCC4)cc(=O)[nH]c23)n1 [Example 307, 3-[4-(1,3-difluoro-2-methylpropan-2-yl)-1,3-thiazol-2-yl]-7-(piperidin-4-yl)pyrazolo[1,5-a]pyrimidin-5(4H)-one hydrochloride] | 20 nM
CC(C)c1noc(-c2cnn3c(C4CCNCC4)cc(=O)[nH]c23)n1 [Example 33, 3-(3-Isopropyl-1,2,4-oxadiazol-5-yl)-7-(piperidin-4-yl)pyrazolo[1,5-a]pyrimidin-5 (4H)-one hydrochloride] | 13 nM
O=c1cc(C2CCNCC2)n2ncc(-c3nnc(CCc4ccccc4)o3)c2[nH]1 [Example 283, 3-[5-(2-phenylethyl)-1,3,4-oxadiazol-2-yl]-7-(piperidin-4-yl)pyrazolo[1,5-a]pyrimidin-5(4H)-one hydrochloride] | 10 nM
O=C(c1cnn2c(C3CCNCC3)cc(=O)[nH]c12)N1CC[C@@H](O)C1 [Example 320, 3-{[(3R)-3-hydroxypyrrolidin-1-yl]carbonyl}-7-(piperidin-4-yl)pyrazolo[1,5-a]pyrimidin-5(4H)-one hydrochloride] | 82 nM
O=c1cc(C2CCNCC2)n2ncc(-c3noc(C4CC4)n3)c2[nH]1 [Example 380, 3-(5-Cyclopropyl-1,2,4-oxadiazol-3-yl)-7-(piperidin-4-yl)pyrazolo[1,5-a]pyrimidin-5(4H)-one hydrochloride] | 14 nM
CC(C)(c1nc(-c2cnn3c(C4CCNCC4)cc(=O)[nH]c23)no1)C(F)(F)F [Example 391, 7-(piperidin-4-yl)-3-(5-(1,1,1-trifluoro-2-methylpropan-2-yl)-1,2,4-oxadiazol-3-yl)pyrazolo[1,5-a]pyrimidin-5(4H)-one hydrochloride] | 30 nM
O=c1cc(C2CCNCC2)n2ncc(-c3nc(-c4ncc(F)cc4F)no3)c2[nH]1 [Example 202, 3-[3-(3,5-difluoropyridin-2-yl)-1,2,4-oxadiazol-5-yl]-7-(piperidin-4-yl)pyrazolo[1,5-a]pyrimidin-5(4H)-one hydrochloride] | 37 nM
O=c1cc(C2CCNCC2)n2ncc(-c3ccc(-c4ccc(C(F)(F)F)cc4)cc3)c2[nH]1 [Example 161, 7-(piperidin-4-yl)-3-[4′-(trifluoromethyl)biphenyl-4-yl]pyrazolo[1,5-a]pyrimidin-5(4H)-one hydrochloride] | 330 nM
CN(C)c1ccc(-c2noc(-c3cnn4c(C5CCNCC5)cc(=O)[nH]c34)n2)cc1F [Example 197, 3-{3-[4-(dimethylamino)-3-fluorophenyl]-1,2,4-oxadiazol-5-yl}-7-(piperidin-4-yl)pyrazolo[1,5-a]pyrimidin-5(4H)-one hydrochloride] | 35 nM
CC(C)OC(=O)c1cnn2c(C3CCNCC3)cc(=O)[nH]c12 [Example 315, Propan-2-yl 5-oxo-7-(piperidin-4-yl)-4,5-dihydropyrazolo[1,5-a]pyrimidine-3-carboxylate hydrochloride] | 36 nM
O=c1cc(C2CCNCC2)n2ncc(-c3noc(C(F)(F)F)n3)c2[nH]1 [Example 390, 7-(piperidin-4-yl)-3-(5-(trifluoromethyl)-1,2,4-oxadiazol-3-yl)pyrazolo[1,5-a]pyrimidin-5(4H)-one hydrochloride] | 34 nM

Same assay, conditions: human citrated platelet-poor plasma 5%, fibrinogen 3 μM, CaCl2 10 mM, tPA 0.2 nM, 37° C., OD at 405 nm; hydrochloride

Compound | IC50
Cc1nn2c(C3CCNCC3)cc(=O)[nH]c2c1-c1cccc(C(F)(F)F)c1 [Example 13, 2-Methyl-7-(piperidin-4-yl)-3-[3-(trifluoromethyl)phenyl]pyrazolo[1,5-a]pyrimidin-5(4H)-one hydrochloride] | 21 nM
CCOC(=O)c1c(C)nn2c(C3CCNCC3)cc(=O)[nH]c12 [Example 396, Ethyl 2-methyl-5-oxo-7-(piperidin-4-yl)-4,5-dihydropyrazolo[1,5-a]pyrimidine-3-carboxylate hydrochloride] | 40 nM
